Measurements taken from patent US12303511B2 (priority 2018, dated 2025).

System: transgenic C. elegans (tgMOR) that express mammalian MOR
Experiment: Thrashing / locomotion of transgenic C. elegans expressing MOR (tgMOR)
Assay type: in vivo
Settings: tgMOR animals, compared with fentanyl

CN1CC[C@]23c4c5ccc(O)c4O[C@H]2[C@@H](O)C=C[C@H]3[C@H]1C5 [morphine]
temporal profile of response: faster response onset and more rapid recovery
